Results on one molecule are retold here after ChEMBL document CHEMBL6127058, “Overview of the PRMT6 modulators in cancer treatment: Current progress and emerged opportunity” (Eur J Med Chem, 2024).

By UniProt entry, the sequences of proteins in these tests, tags left out.
UniProt Q96LA8, whole entry: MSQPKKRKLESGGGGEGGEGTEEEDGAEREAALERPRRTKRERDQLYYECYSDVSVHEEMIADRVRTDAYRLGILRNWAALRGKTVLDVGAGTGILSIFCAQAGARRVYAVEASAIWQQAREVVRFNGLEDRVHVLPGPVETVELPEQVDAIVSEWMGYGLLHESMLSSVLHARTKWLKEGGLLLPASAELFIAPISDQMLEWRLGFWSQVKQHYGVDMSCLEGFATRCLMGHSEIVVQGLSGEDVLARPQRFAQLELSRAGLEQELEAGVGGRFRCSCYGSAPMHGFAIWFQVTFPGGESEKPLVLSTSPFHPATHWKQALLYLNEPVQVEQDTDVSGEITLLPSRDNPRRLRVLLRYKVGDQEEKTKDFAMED

The assay concerns the target Protein arginine N-methyltransferase 6 (Homo sapiens, UniProt Q96LA8).

The structures appear in SMILES notation.

Regarding `Cc1cc(C)cc([C@H]2c3cc(C)ccc3NC(=O)CN2C(=O)c2ccc(Br)s2)c1`, the IC50 was > 50 nM.

In general, IC50 refers to the concentration at which inhibition is half-maximal. High values mean lower potency, low ones higher potency.
